{"source": "PubChem BioAssay AID590", "about": "(National Center for Advancing Translational Sciences (NCATS), 2007)", "note": "Only a part is listed here, and it is no random draw. Inconclusive results are not listed. Active and inactive are the calls of the source. Cut-off read from the data, not from the text of the source: active = max dye-equivalent concentration above about 10 nM; inconclusive = mostly about 1.1 nM to 9.6 nM; inactive = weaker than that."}
{"experiment": "qHTS Assay for Spectroscopic Profiling in A350 Spectral Region", "details": "Compound autofluorescence, 340/450 nm, Alexa 350 dye-equivalents", "description": "NIH Molecular Libraries Screening Centers Network [MLSCN]\nNIH Chemical Genomics Center [NCGC]\nOccasionally, the artifactual effect may originate from the compounds own spectral or other biophysical properties which generally tend to track its assay concentration. Pre-screening/profiling the library with respect to the compounds spectral properties should help one exclude false positives early on. While the most informative fluorescent profiling data set is obtained by performing a full excitation and emission scan of each well by using a monochromator-based plate reader, such an approach is practical only on a very limited scale as scanning each well requires long time. An alternative approach, applied here, is to perform plate reader scans using selected excitation and emission wavelength pairs to generate a multidimensional relational database that correlates compound concentration and the respective relative fluorescence intensity at a given wavelength set. A standard curve of Alexa 350 (A 350) present on each plate as six-point concentration series, was used to compute a normalized fluorescence response, termed dye-equivalent concentration, for each compound at each concentration.\nNCGC Assay Protocol Summary:\n100 mM Tris buffer, pH 8.0\nThe wells in columns 1 through 4 of a Kalypsys polypropylene 1536-well compound plate were filled with standard solutions of fluorophore corresponding to the spectral region of interest. Solutions of A 350 were placed in the following wells: I1, J1: 3 mM, I2, J2: 300 uM, I3, J3: 30 uM, I4, J4: zero (DMSO), K1, L1: 3 uM, K2, L2: […], K3, L3: 300 nM, K4, L4: zero (DMSO).\nSix uL of buffer were dispensed to 1536-well Greiner black plates. Compounds and dye standards (23 nL) were transferred via Kalypsys PinTool. The plates were incubated for 15 min at room temperature, and then read on ViewLux (Perkin-Elmer) High-throughput CCD imager using 340 nm and 450 nm excitation and emission filter set.\nKeywords: NIH Roadmap, MLSCN, MLI, MLSMR, qHTS, NCGC, A350, A-350, Fluorescent Profiling."}
{"smiles": "NC(=O)Nc1cc([As](=O)(O)O)cc(I)c1O", "outcome": "inactive"}
{"smiles": "O=C(OC1CN2CCC1CC2)C12CC3CC(CC(C3)C1)C2", "note": "(configuration not stated)", "outcome": "inactive"}
{"smiles": "O=[As]c1ccc(S(=O)(=O)NCCO)cc1", "note": "(configuration not stated)", "outcome": "inactive"}
{"smiles": "[N-]=[N+]=NCC(N)=O", "outcome": "inactive"}
{"smiles": "COc1ccccc1OP(C)(=O)Nc1ccc(C)cc1", "note": "(configuration not stated)", "outcome": "inactive"}
{"smiles": "N1=C(c2nnc(-c3nn[nH]n3)nn2)NNN1", "outcome": "inactive"}
{"smiles": "CP(=S)(Nn1cnnc1)Oc1ccccc1", "note": "(configuration not stated)", "outcome": "inactive"}
{"smiles": "O=C(O)[C@@H](O)c1ccc([As](=O)(O)O)cc1", "outcome": "inactive"}
{"smiles": "CP(=O)(NC(=O)Nc1ccccc1)Oc1ccccc1", "note": "(configuration not stated)", "outcome": "inactive"}
{"smiles": "O=C(COc1ccccc1)OC1CN2CCC1CC2", "note": "(configuration not stated)", "outcome": "inactive"}
{"smiles": "Clc1n[nH]nc1-c1nn[nH][15n]1", "outcome": "inactive"}
{"smiles": "O=P1(Nc2ccccn2)COc2ccccc2OC1", "outcome": "inactive"}
{"smiles": "CN(CCCl)Cc1cc(Cl)c(NC2=NCCN2)c(Cl)c1", "outcome": "inactive"}
{"smiles": "CN(C(=O)Cc1ccc(Cl)c(Cl)c1)[C@@H]1CCCC[C@H]1N1CCCC1", "outcome": "inactive"}
{"smiles": "Cc1nc2ccc3ccccc3c2s1.O=[N+]([O-])c1cc([N+](=O)[O-])c(O)c([N+](=O)[O-])c1", "outcome": "inactive"}
{"smiles": "O=P1(Nc2ccc(Br)cn2)COc2ccccc2OC1", "outcome": "inactive"}
{"smiles": "Cc1ccc(OCC(=O)OC2CN3CCC2CC3)cc1", "note": "(configuration not stated)", "outcome": "inactive"}
{"smiles": "O=P1(Nc2ncccn2)COc2ccccc2OC1", "outcome": "inactive"}
{"smiles": "O=[As](O)(O)c1ccc([As](=O)(O)O)cc1", "outcome": "inactive"}
{"smiles": "O=P(Nc1nccs1)(c1ccccc1)c1nc2ccccc2s1", "note": "(configuration not stated)", "outcome": "inactive"}
{"smiles": "NC(=O)Nc1ccc([As](=O)(O)O)cc1", "outcome": "inactive"}
{"smiles": "NS(=O)(=O)Cc1ccc([As](=O)(O)O)cc1", "outcome": "inactive"}
{"smiles": "CP(=O)(Nc1ccccc1F)Oc1ccccc1", "note": "(configuration not stated)", "outcome": "inactive"}
{"smiles": "O=P1(Nc2nc3ccc(Cl)cc3s2)COc2ccccc2O1", "note": "(configuration not stated)", "outcome": "inactive"}
{"smiles": "COC(=O)c1cc2c(s1)N=C(c1ccccc1)N(C)P2(=O)N1CCOCC1", "note": "(configuration not stated)", "outcome": "inactive"}
{"smiles": "[N-]=[N+]=Nc1ccc([As](=O)(O)O)cc1", "outcome": "inactive"}
{"smiles": "O=C(OC1CN2CCC1CC2)c1cccc(Cl)c1", "note": "(configuration not stated)", "outcome": "inactive"}
{"smiles": "NNC(NN)NN.n1nc(-c2nn[nH]n2)n[nH]1", "outcome": "inactive"}
{"smiles": "C[C@@H](O)COc1ccc([As](=O)(O)O)cc1N", "outcome": "inactive"}
{"smiles": "Cc1ccccc1NP(C)(=O)Nc1ccccc1C", "outcome": "inactive"}
{"smiles": "CCc1nc2c(n1)c1c(non1O)c1c2no[n+]1[O-]", "outcome": "inactive"}
{"smiles": "COc1ccccc1OP(C)(=O)Nc1c(C)n(C)n(-c2ccccc2)c1=O", "note": "(configuration not stated)", "outcome": "inactive"}
{"smiles": "N#[O+].[C-]#N.[C-]#N.[C-]#N.[C-]#N.[C-]#N.[Fe+2].[Na+].[Na+]", "outcome": "inactive"}
{"smiles": "CCN(CC)CC(O)COC(=O)C(O)(c1ccccc1)C1CCCCC1", "note": "(configuration not stated)", "outcome": "inactive"}
{"smiles": "O=C(CO)Nc1ccc([As](=O)(O)O)cc1", "outcome": "inactive"}
{"smiles": "CN(C(=O)Cc1ccccc1)[C@@H]1CC[C@@]2(CCCO2)C[C@H]1N1CCCC1", "outcome": "inactive"}
{"smiles": "C/C1=C2N=C(/C=C3N=C(/C(C)=C4\\[N-][C@@](C)([C@H]5N=C1[C@@](C)(CCC(=O)NC[C@H](C)OP(=O)([O-])O[C@@H]1[C@H](O)[C@H](n6cnc7cc(C)c(C)cc76)O[C@@H]1CO)[C@@H]5CC(N)=O)[C@](C)(CC(N)=O)[C@H]4CCC(N)=O)[C@@](C)(CC(N)=O)[C@@H]\\3CCC(N)=O)C(C)(C)[C@@H]/2CCC(N)=O.[C-]#N.[Co+3]", "outcome": "inactive"}
{"smiles": "COc1ccccc1OP(C)(=O)Nc1ccc(C)c(C)c1", "note": "(configuration not stated)", "outcome": "inactive"}
{"smiles": "C(Cc1nn[nH]n1)c1nn[nH]n1", "outcome": "inactive"}
{"smiles": "[N-]=[N+]=NCC(O)CN=[N+]=[N-]", "note": "(configuration not stated)", "outcome": "inactive"}
{"smiles": "O=[N+]([O-])c1ccc(C[As](=O)(O)O)cc1", "outcome": "inactive"}
{"smiles": "NCC[C@@H](N)CSP(=O)(O)O", "outcome": "inactive"}
